Yeast mating assay 1: variants of the scFv Ab-14

From the AlphaSeq antibody data of Engelhart et al. 2022 (doi:10.1038/s41597-022-01779-4), copy in the FLAb collection.

All variants were tested on one target, the spike HR2 peptide PDVDLGDISGINAS (SARS-CoV-2).

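The starting antibody came from a phage panning campaign against this peptide. AAYL50 was designed without a model: most single CDR substitutions and a random sample of double and triple ones. AlphaSeq pools MATa yeast showing the antibodies with MATalpha yeast showing the peptide. Mating (16 h, 30 °C) was followed by selection of diploids and sequencing of their barcodes. A regression on co-assayed BCL2-family reference pairs converts the normalised counts of each replicate to an apparent Kd. Each pool was mated in three replicate cultures.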

Parent: Ab-14, a human scFv built as VH, three GGGGS repeats, VL. Only the CDRs of the light chain vary.
VH: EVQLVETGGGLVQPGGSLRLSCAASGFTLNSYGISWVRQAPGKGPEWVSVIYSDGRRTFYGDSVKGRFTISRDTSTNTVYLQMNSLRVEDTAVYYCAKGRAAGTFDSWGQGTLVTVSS
VL: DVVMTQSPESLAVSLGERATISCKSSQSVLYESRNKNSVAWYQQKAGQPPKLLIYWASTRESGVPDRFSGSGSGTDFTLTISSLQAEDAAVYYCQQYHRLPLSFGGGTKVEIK

Positions count from residue 1 of the parent VL; E32C puts C in place of E.
Affinities are written as log10 Kd with Kd in nM; a lower number is a better binder.
Averages over replicates are reported, and they cover detected replicates only.
A pair that was not seen in that replicate is written "ND"; this usually means weak binding, but a binder can also be missed.

| changes | log10 Kd, replicates | mean log10 Kd (nM) | empty controls |
|---|---|---|---|
| E32C N37Q H98S | ND ND ND | ND | 0/9 |
| Y31T A40C L102E | ND ND ND | ND | 5/9 (4.34) |
| K24E R60P S62C | 3.34 2.43 2.55 | 2.78 | 2/9 (3.88) |
| R34N T59P Q95Y | ND ND ND | ND | 1/9 (2.42) |
| S25W S26Q T59Q | 0.63 1.00 0.55 | 0.73 | 3/9 (3.65) |
| S26L Y31F L100D | 6.29 ND ND | 6.29 | 3/9 (4.07) |
| Y31W S62H Y97D | 1.76 2.01 2.04 | 1.94 | 2/9 (4.10) |
| Q27L R60D | ND ND ND | ND | 0/9 |
| S58M P101Y S103Y | 2.09 1.81 2.11 | 2.00 | 5/9 (4.86) |
| L30S W56Y Q95L | 0.97 1.24 1.10 | 1.10 | 3/9 (3.87) |
| N35T N37H S38D | 2.23 2.18 2.01 | 2.14 | 0/9 |
| Y31V K36P T59G | ND ND ND | ND | 1/9 (2.48) |
| V39K T59G S103Q | ND ND ND | ND | 0/9 |
| S25I S26I N37D | 1.08 1.19 1.32 | 1.20 | 1/9 (3.82) |
| K36L R60P H98P | 1.27 1.26 1.39 | 1.30 | 2/9 (4.34) |
| N35F L100R L102R | 1.16 1.34 1.29 | 1.26 | 2/9 (4.33) |
| S33N N37R L100Q | ND ND 4.59 | 4.59 | 1/9 (1.70) |
| S25W Q27P N37A | 0.96 1.09 1.01 | 1.02 | 2/9 (4.52) |
| S28W K36M S38G | 3.69 ND 2.29 | 2.99 | 1/9 (3.96) |
| E32H R34C Q95M | ND 3.08 ND | 3.08 | 2/9 (3.40) |
| S28R R34Y N37K | 1.74 2.34 2.47 | 2.19 | 0/9 |
| V29Q L30M H98T | 1.06 1.05 1.07 | 1.06 | 3/9 (4.61) |
| S26H N37K S38Y | ND 3.18 ND | 3.18 | 0/9 |
| V39A A57E R60F | ND ND ND | ND | 1/9 (1.85) |
| S25W S33Q | 1.06 0.78 0.69 | 0.84 | 0/9 |
| R60N Q96T P101D | 5.61 ND ND | 5.61 | 2/9 (3.83) |
| Y31F E61P Y97E | 0.97 1.42 1.13 | 1.17 | 4/9 (4.02) |
| Q27M | 0.89 1.06 1.05 | 1.00 | 0/9 |
| T59A Y97D H98A | 1.85 2.15 3.37 | 2.46 | 3/9 (4.57) |
| E61C Y97K P101W | ND 4.24 4.90 | 4.57 | 3/9 (4.65) |
| N35Y R60C Q96S | 3.93 4.29 4.44 | 4.22 | 4/9 (4.63) |
| S28W Q95N L102P | ND ND ND | ND | 2/9 (4.53) |
| K24G V29C N35Y | ND 3.33 ND | 3.33 | 1/9 (3.82) |
| Y31V Y97V S103E | 5.38 3.99 ND | 4.69 | 0/9 |
| E32A R60V Q96I | 3.16 3.13 2.90 | 3.07 | 4/9 (3.92) |
| K24G V39Q Q95T | 3.90 ND 3.55 | 3.73 | 2/9 (2.95) |
| V39K S62T P101H | ND ND ND | ND | 2/9 (3.93) |
| S28Y L100C | 1.32 1.45 1.51 | 1.43 | 4/9 (4.46) |
| L30W S62L P101A | 3.11 2.43 3.23 | 2.92 | 1/9 (3.47) |
| K36L A57M L100Q | 1.20 1.22 1.32 | 1.25 | 2/9 (3.95) |
| K24N T59S E61L | 2.66 2.64 ND | 2.65 | 0/9 |

Again, the first 4 entries without any signal:

changes	log10 Kd, replicates	mean log10 Kd (nM)	empty controls
E32C N37Q H98S	ND ND ND	ND	0/9
Y31T A40C L102E	ND ND ND	ND	5/9 (4.34)
R34N T59P Q95Y	ND ND ND	ND	1/9 (2.42)
Q27L R60D	ND ND ND	ND	0/9

Nonspecific signal, from three strains lacking the peptide, appeared in 18% of pairings of library AAYL50, centred on 4.19 (5% of these signals below 2.99); values are not corrected for it. For each scFv, signals with the empty controls are counted beside the result, with their mean in brackets.
For reference, the parent read 0.65 as the reference entry and 1.68 as a member of this library.